Measurements published in patent US9718738B2 (priority 2014, dated 2017).
Only a part of the results on these compounds is given; other tests are left out.

Columns and labels:
[1] = system: providence sweet corn; test: Northeastern crop study, sweet corn harvestable yield; details: sandy soil, sidedress
Method: Two Studies were completed in which two different crops were planted, in different geographies (i.e. midwestern US and northeastern US).
For the northeastern crop study, providence sweet corn was grown. […] One coated urea fertilizer composition was evaluated, urea coated with hydrotalcite (12 wt. %) and wax (3%, paraffin wax) (prepared as described above). The corn followed a typical agricultural schedule, planting occurred in July and harvesting occurred in September. Lysimeter samples were collected and analyzed for nitrate. The crop was reported as a harvestable yield (e.g. ears/acre and 100 lb/acre).
In both cases, the coated urea fertilizer was evaluated against controls including: urea (uncoated/unmodified), UAN (Urea/ammonium nitrate aqueous solution), and ESN (Environmentally Smart Nitrogen, Agrium, Inc.).
For the northeastern crop study, planting occurred in early July, with fertilizer application occurring (via sidedress) in early august and the harvest occurring in mid-September.

[2] = system: grain corn; test: Midwestern crop study, grain corn yield; assay type: in vivo; details: nitrogen application rate of 120 lbs N/acre; grain yield at 15.5% moisture

ammonium nitrate
Yield (100 wt) ([1]; N Rate 100 lbs N/acre): 87 100 wt | Yield (1,000 ears/acre) ([1]; N Rate 100 lbs N/acre): 15.8 1,000 ears/acre | Yield (100 wt) ([1]; N Rate 140 lbs N/acre): 99 100 wt | Yield (1,000 ears/acre) ([1]; N Rate 140 lbs N/acre): 16.0 1,000 ears/acre | grain yield [2]: 187.2 bu/acre
